Data from US11634443B2, “Treprostinil prodrugs” (United Therapeutics Corporation, priority 2019, dated 2023).

By UniProt entry, the sequences of proteins in these tests, tags left out. Where a name states a change or a piece, a line headed by the entry shows the natural chain unless it says otherwise.
UniProt P43116: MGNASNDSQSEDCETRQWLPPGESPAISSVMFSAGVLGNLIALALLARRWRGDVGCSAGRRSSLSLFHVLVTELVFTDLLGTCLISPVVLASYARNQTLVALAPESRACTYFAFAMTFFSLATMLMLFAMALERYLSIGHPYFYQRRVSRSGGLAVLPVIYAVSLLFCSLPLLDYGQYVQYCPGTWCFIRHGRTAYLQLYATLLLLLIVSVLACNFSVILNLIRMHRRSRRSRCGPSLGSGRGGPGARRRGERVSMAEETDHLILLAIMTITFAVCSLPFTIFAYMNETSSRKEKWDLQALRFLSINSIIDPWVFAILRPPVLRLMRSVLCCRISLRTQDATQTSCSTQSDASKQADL

Experiments:
[1] = Stability and formation of treprostinil in simulated intestinal fluid; type: in vitro ADME; conditions: SIF pH 6.8, 1 μM, 37° C.
Method: Studies were carried out in simulated intestinal fluid (SIF). SIF was prepared by dissolving 6.8 g of KH2PO4 in 250 mL of water, mixing, and then adding 77 mL of 0.2 N NaOH and 750 mL of water. […] DMSO stocks were first prepared for the test articles. […] The vials were kept in a benchtop Thermomixer® for the duration of the experiment. A separate tube was dosed for each time point in each matrix. […] Samples were mixed and then immediately stored at 4° C. until the end of the experiment. After the final time point was sampled, the plate was mixed and then centrifuged at 3000 rpm for 10 minutes.

[2] = Plasma stability and formation of treprostinil, dog plasma; type: in vitro ADME; conditions: 1 μM, 37° C.
Method: (§1) Studies were carried out in mixed-gender human plasma male Sprague-Dawley rat plasma, and male Beagle dog plasma. All plasma was obtained from Bioreclamation and collected on K2EDTA. Plasma was adjusted to pH 7.4 prior to initiating the experiments. DMSO stocks were first prepared for the test articles. […] The vials were kept in a benchtop Thermomixer® for the duration of the experiment. […] Samples were stored at 4° C. until the end of the experiment. After the final time point was sampled, the plate was mixed and then centrifuged at 3000 rpm for 10 minutes.

[3] = target: T1, prostaglandin E2 (PGE2) receptor 2 (EP2) (Homo sapiens, UniProt P43116); test: EP2 receptor cAMP assay (agonist mode); type: cell-based; conditions: for Activity, EP2 Relative to Tre: relative to treprostinil EC50 values, * partial agonists or ambiguous dose-response curves, image character = too high to realistically calculate
T1 construct: expressed in transfected cells; host or cells: HEK293T

[4] = target: T2, prostaglandin D2 (PGD2) receptor 1 (DP1) (Homo sapiens, UniProt Q13258); test: DP1 receptor cAMP assay (agonist mode); type: cell-based; conditions: for Activity, DP1 Relative to Tre: relative to treprostinil EC50 values, * partial agonists or ambiguous dose-response curves
T2 construct: expressed in transfected cells; host or cells: HEK293T
T2 sequence (Q13258 1-359): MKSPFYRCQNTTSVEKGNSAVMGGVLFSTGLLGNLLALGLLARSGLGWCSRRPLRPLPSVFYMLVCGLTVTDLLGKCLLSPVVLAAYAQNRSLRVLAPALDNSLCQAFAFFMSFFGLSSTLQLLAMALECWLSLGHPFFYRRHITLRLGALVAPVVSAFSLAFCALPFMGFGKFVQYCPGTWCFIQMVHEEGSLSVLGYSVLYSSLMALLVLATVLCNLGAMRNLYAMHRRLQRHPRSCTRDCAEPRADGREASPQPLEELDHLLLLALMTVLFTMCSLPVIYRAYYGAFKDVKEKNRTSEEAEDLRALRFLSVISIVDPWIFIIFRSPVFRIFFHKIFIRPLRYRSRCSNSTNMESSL

[5] = Plasma stability and formation of treprostinil, human plasma; type: in vitro ADME; conditions: 1 μM, 37° C.
Method: as §1

[6] = Plasma stability and formation of treprostinil, rat plasma; type: in vitro ADME; conditions: 1 μM, 37° C.
Method: as §1

[7] = Table 20, agonist mode, NC = too inactive to realistically calculate, * partial agonists or odd dose-response curves
[8] = Table 24, image character = too high to realistically calculate

For treprostinil diacetate [Prodrug LXXII], the “Percent Remaining” value ([1]; 0 min) was 100%, the “Percent Remaining” value ([1]; 15 min) was 111% and the “Percent Remaining” value ([1]; 30 min) was 107%. For the same substance, the “Percent Remaining” value ([1]; 60 min) was 108%, the “Percent Remaining” value ([1]; 120 min) was 109% and the “Percent Remaining” value ([2]; 0 min) was 100%. For the same substance, the “Percent Remaining” value ([2]; 30 min) was 102%, the “Percent Remaining” value ([2]; 60 min) was 107% and the “EC50 Fold Different from Treprostinil, EP2 Receptor” value [3, 7] was 133x*. For the same substance, the “Activity, EP2 Relative to Tre” value ([3]; Table 24) was 133x*, the “Activity, EP2 Relative to Tre” value ([3]; Table 25) was 133x* and the “EC50 Fold Different from Treprostinil, DP1 Receptor” value [4, 7] was 561x*. The “Activity, DP1 Relative to Tre” value [4, 8] was 561x, the “Activity, DP1 Relative to Tre” value ([4]; Table 25) was 561x and the “Percent Remaining” value ([5]; 0 min) was 100%. The “Percent Remaining” value ([5]; 15 min) was 106%, the “Percent Remaining” value ([5]; 30 min) was 106% and the “Percent Remaining” value ([5]; 60 min) was 102%. The “Percent Remaining” value ([6]; 0 min) was 100%, the “Percent Remaining” value ([6]; 15 min) was 107% and the “Percent Remaining” value ([6]; 30 min) was 107%.

In the case of treprostinil dicarbonate [Prodrug LXXI], the “Percent Remaining” value ([1]; 0 min) is reported as 100%, the “Percent Remaining” value ([1]; 15 min) is reported as 96.2% and the “Percent Remaining” value ([1]; 30 min) is reported as 100%. The “Percent Remaining” value ([1]; 60 min) was 91.9%, the “Percent Remaining” value ([1]; 120 min) was 83.5% and the “Activity, DP1 Relative to Tre” value [4, 8] was 2181x*. The “Activity, DP1 Relative to Tre” value ([4]; Table 25) was 2181x*.
